The target in the test is T1, Biotinylated horseradish peroxidase (B-HRP) (Armoracia rusticana, UniProt P00433).
T1 sequence (P00433 31-338): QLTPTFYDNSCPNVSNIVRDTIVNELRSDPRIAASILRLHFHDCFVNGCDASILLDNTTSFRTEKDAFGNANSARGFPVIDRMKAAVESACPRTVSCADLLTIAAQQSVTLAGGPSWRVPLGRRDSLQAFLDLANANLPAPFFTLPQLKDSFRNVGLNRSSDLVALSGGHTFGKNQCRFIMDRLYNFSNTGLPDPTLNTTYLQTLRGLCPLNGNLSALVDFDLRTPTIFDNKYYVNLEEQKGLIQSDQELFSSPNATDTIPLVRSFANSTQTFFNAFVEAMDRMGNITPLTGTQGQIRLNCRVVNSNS
Briefly: Microtiter plate luminometer assay of peroxidase activity (RLU). The conditions noted are these: after 5 minutes, enhancer: 1c […] (present invention) or 52 μM (low), 1b 52 μM, 3 13.5 μM.

As for “Phenylindophenol/indophenol [Phenolic Enhancer 3]”, the “Relative Intensity 5 pg SA-HRP” value amounted to 0, the “Relative Intensity 25 pg SA-HRP” value came out at 0 and the “Relative Intensity 250 pg B-HRP” value was determined as 0.328.

These data come from patent US6432662B1, “Assay of peroxidase activity” (Pierce Chemical Company, priority 1999, dated 2002).
